According to PubChem BioAssay AID504467 (National Center for Advancing Translational Sciences (NCATS), 2011):
The list shows a part of the results, in another mix than the full data. Inconclusive results are not listed. The source made the active and inactive calls. Calls follow the shape of the dose curve; as a rule, active = well fitted inhibition curve with a large enough effect; inconclusive = small, poorly fitted or top-dose-only effect, or effect the other way; inactive = flat fitted curve, though single readings scatter.

Assay: qHTS screen for small molecules that inhibit ELG1-dependent DNA repair in human embryonic kidney (HEK293T) cells expressing luciferase-tagged ELG1; also: nearly all actives have a fitted effect of over 55% in size
Conditions: HEK293T ELG1-luciferase reporter, luminescence, 16 h, DNA damage induced by 5-fluorouridine; series mostly up to 46.1 µM; activity change, negative = inhibition: at the top concentration
% is scaled to controls: 0 for no effect and ±100 for the full control effect; potency is read from the fitted curve at half-maximal effect.

SMILES | activity change, negative = inhibition | Potency
COc1ccccc1OP(C)(=O)Nc1ccccc1Br (stereo not drawn) | inactive: 8.92% | –
CC(C)(C)c1ccc(OP(C)(=O)O)cc1 | inactive: 19.1% | –
CP(=O)(Nc1ccc(Cl)cc1)Oc1ccc(F)cc1 (stereo not drawn) | inactive: -1.96% | –
CCN(CC)CC(O)COC(=O)C(O)(c1ccccc1)C1CCCCC1 (stereo not drawn) | inactive: -0.402% | –
COc1ccc(OP(C)(=O)Nc2ccc(Br)cc2)cc1 (stereo not drawn) | inactive: -7.72% | –
COc1ccccc1OP(C)(=O)Nc1c(C)n(C)n(-c2ccccc2)c1=O (stereo not drawn) | inactive: 1.02% | –
O=C(OCCCN1CCCC1)C(O)(c1ccccc1)C1CCCCC1 (stereo not drawn) | inactive: -5.47% | –
CP(=O)(Oc1ccccc1)N1CCOC1=O (stereo not drawn) | inactive: 1.01% | –
CCc1ccc(OP(C)(=O)Nc2cccnc2)cc1 (stereo not drawn) | inactive: -2.19% | –
CP(=O)(OC12CC3CC(CC(C3)C1)C2)OC12CC3CC(CC(C3)C1)C2 | inactive: -2.18% | –
CP(=O)(Nc1ccc(Cl)cc1Cl)Oc1ccccc1 (stereo not drawn) | inactive: -4.3% | –
CP(=O)(OCCOc1ccccc1)OCCOc1ccccc1 | inactive: -9.87% | –
Cc1cc(C)cc(OP(C)(=O)Nc2cccc(C(F)(F)F)c2)c1 (stereo not drawn) | inactive: 22.7% | –
COc1ccccc1OP(C)(=O)Nc1ccc(C)c(C)c1 (stereo not drawn) | inactive: 4.39% | –
COc1ccc(OP(C)(=O)Nc2ccccc2Br)cc1 (stereo not drawn) | inactive: 3.38% | –
Cc1c(NP(C)(=O)Oc2ccc(C(C)C)cc2)c(=O)n(-c2ccccc2)n1C (stereo not drawn) | inactive: 4.76% | –
CP(=O)(Nc1ccccn1)Oc1ccccc1 (stereo not drawn) | inactive: 5.14% | –
COc1ccccc1OP(C)(=O)Nc1ccc(C)cc1C (stereo not drawn) | inactive: 0.657% | –
CCc1ccc(OP(C)(=O)O)cc1 | inactive: 3.63% | –
COc1ccccc1OP(C)(=O)Nc1ccc(Br)cc1 (stereo not drawn) | inactive: 0.422% | –
COc1ccc(OP(C)(=O)Nc2ccccn2)cc1 (stereo not drawn) | inactive: -1.03% | –
CN(C)CCOC(=O)C(O)(c1ccccc1)C1CCCC1 (stereo not drawn) | inactive: 4.79% | –
O=C(OCCN1CCN(CCOCc2ccccc2)CC1)C(O)(c1ccccc1)c1ccccc1 | inactive: 3.04% | –

SMILES | activity change, negative = inhibition | Potency
CP(=O)(Nc1ccccc1F)Oc1ccccc1 (stereo not drawn) | inactive: 11.2% | –
CC(C)c1ccc(OP(C)(=O)Nc2ccc(SC(F)(F)F)cc2)cc1 (stereo not drawn) | inactive: -15.9% | –
CCN(CC)CCCOC(=O)C(O)(c1ccccc1)C1CCCCC1 (stereo not drawn) | inactive: 0.319% | –
CP(=O)(Nc1ccccc1)Oc1ccc(F)cc1 (stereo not drawn) | inactive: 11% | –
CCCCCOc1ccc(NP(C)(=O)Oc2ccc(Cl)cc2Cl)cc1 (stereo not drawn) | inactive: 5.14% | –
CCOC(=O)c1ccc(NP(C)(=O)Oc2ccc(F)cc2)cc1 (stereo not drawn) | inactive: -5.89% | –
COc1ccc(OP(C)(=O)Nc2ccc(SC(F)(F)F)cc2)cc1 (stereo not drawn) | inactive: -2.72% | –
O=[N+]([O-])c1ccc(OP2(=O)COCCO2)cc1 (stereo not drawn) | inactive: -6.6% | –
COc1ccc(OP(C)(=O)Nc2cccc(Br)c2)cc1 (stereo not drawn) | inactive: 11.1% | –
CN(C)CCOC(=O)C(O)(c1ccccc1)C1CCCCC1 (stereo not drawn) | inactive: 15.6% | –
COc1ccc(NP(C)(=O)Oc2ccccc2OC)cc1 (stereo not drawn) | inactive: 7.59% | –
CP(=O)(Nc1ccc2c(c1)OCCO2)Oc1ccccc1 (stereo not drawn) | inactive: 11.5% | –
Cc1ccccc1NP(C)(=O)Nc1ccccc1C | inactive: 8.99% | –
CCOP(C)(=S)SCC(=O)NC(C)(CC)C(=O)O (stereo not drawn) | inactive: 16.1% | –
Cc1nc2ccc3ccccc3c2s1.O=[N+]([O-])c1cc([N+](=O)[O-])c(O)c([N+](=O)[O-])c1 | inactive: 10.7% | –
O=[N+]([O-])c1cc([N+](=O)[O-])c(-n2nnc3ccccc32)c([N+](=O)[O-])c1 | inactive: 10.5% | –
COc1ccccc1OP(C)(=O)Nc1c(C)cccc1C (stereo not drawn) | inactive: -15.5% | –
CN1CCCCC1COC(=O)C1(O)c2ccccc2CCc2ccccc21 (stereo not drawn) | inactive: 3% | –
CCCOc1ccc(NP(C)(=O)Oc2ccc(Cl)cc2)cc1 (stereo not drawn) | inactive: 0.674% | –
CP(=O)(Nc1ccc(SC(F)(F)F)cc1)Oc1ccccc1 (stereo not drawn) | inactive: -1.67% | –
CC1=C2N=C(C=C3N=C(C(C)=C4[N-][C@@](C)([C@@H]5N=C1[C@](C)(CCC(=O)NC[C@@H](C)OP(=O)([O-])O[C@H]1[C@@H](O)[C@@H](n6cnc7cc(C)c(C)cc76)O[C@@H]1CO)[C@H]5CC(N)=O)[C@@](C)(CC(N)=O)[C@@H]4CCC(N)=O)[C@@](C)(CC(N)=O)[C@@H]3CCC(N)=O)C(C)(C)[C@@H]2CCC(N)=O.[C-]#N.[Co+3] | – | active: 8.2 µM
CC1=NCCc2c1[nH]c1ccccc21.O=[N+]([O-])c1cc([N+](=O)[O-])c(O)c([N+](=O)[O-])c1 | inactive: -10.3% | –
Cc1ccc(C)c(NP(C)(=O)Oc2ccccc2)c1 (stereo not drawn) | inactive: -0.322% | –

SMILES | activity change, negative = inhibition | Potency
Cc1cc(C)cc(OP(C)(=O)Nc2ccccn2)c1 (stereo not drawn) | inactive: -0.282% | –
CP(=O)(Nc1cccc(Br)c1)Oc1ccccc1 (stereo not drawn) | inactive: 0.264% | –
COc1ccccc1OP(C)(=O)Nc1cccc(Br)c1 (stereo not drawn) | inactive: 1.43% | –
Cc1cc(C)cc(OP(C)(=O)Nc2ccc(C)cc2C)c1 (stereo not drawn) | inactive: 1.86% | –
CCN(CC)CCCOC(=O)C(O)(c1ccccc1)c1ccccc1 | inactive: 9.2% | –
COc1ccccc1OP(C)(=O)Nc1ccc(C)cc1 (stereo not drawn) | inactive: 4.23% | –
Cc1ccc(NP(C)(=O)Oc2ccccc2)c(C)c1 (stereo not drawn) | inactive: -0.858% | –
CCOC(=O)c1ccc(NP(C)(=O)Oc2ccccc2)cc1 (stereo not drawn) | inactive: 2.2% | –
Cc1cc(C)cc(OP(C)(N)=O)c1 (stereo not drawn) | inactive: 8.16% | –
COc1ccccc1OP(C)(=O)Nc1cc(Cl)ccc1C (stereo not drawn) | inactive: -7.71% | –
COc1ccc(OP(C)(=O)Nc2cccc(F)c2)cc1 (stereo not drawn) | inactive: -2.99% | –
CC(C)(C)c1ccc(OP(C)(=O)Nc2ccc(SC(F)(F)F)cc2)cc1 (stereo not drawn) | inactive: -4.62% | –
Cc1cccc(C)c1OP(C)(N)=O (stereo not drawn) | inactive: -1.63% | –
CP(=S)(Nn1cnnc1)Oc1ccccc1 (stereo not drawn) | inactive: -5.31% | –
CP(=O)(Nc1ccccc1Br)Oc1ccccc1 (stereo not drawn) | inactive: 17.9% | –
COc1ccccc1OP(C)(=O)Nc1ccccc1 (stereo not drawn) | inactive: 3.39% | –
CCOC(=O)c1ccc(NP(C)(=O)Oc2ccc(OC)cc2)cc1 (stereo not drawn) | inactive: 1.37% | –
CP(=O)(Nc1ccc(SC(F)(F)F)cc1)Oc1ccc(Cl)cc1 (stereo not drawn) | inactive: 0.173% | –
CP(=O)(Oc1ccccc1)OC(c1ccccc1)C(F)(F)F (stereo not drawn) | inactive: -7.2% | –
CP(=O)(NC(=O)Nc1ccccc1)Oc1ccccc1 (stereo not drawn) | inactive: 8.89% | –
CCc1ccc(OP(C)(=O)N2CCN(c3ccc([N+](=O)[O-])cc3)CC2)cc1 (stereo not drawn) | inactive: -26.5% | –
Cc1cc(C)cc(OP(C)(=O)Nc2ccc(SC(F)(F)F)cc2)c1 (stereo not drawn) | inactive: 9.62% | –
